The structures appear in SMILES notation.

By UniProt entry, the sequences of proteins in these tests, tags left out. Residues count along the entry.
UniProt P22607, 450-758: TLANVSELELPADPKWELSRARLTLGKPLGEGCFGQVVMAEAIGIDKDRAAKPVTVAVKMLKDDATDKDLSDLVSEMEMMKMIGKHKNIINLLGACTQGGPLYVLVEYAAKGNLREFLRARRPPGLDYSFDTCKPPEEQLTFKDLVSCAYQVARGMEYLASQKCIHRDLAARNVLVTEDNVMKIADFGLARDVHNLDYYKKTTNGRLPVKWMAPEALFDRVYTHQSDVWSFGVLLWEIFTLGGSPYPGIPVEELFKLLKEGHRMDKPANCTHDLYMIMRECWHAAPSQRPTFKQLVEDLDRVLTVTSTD
UniProt P22607, 450-758 V555M: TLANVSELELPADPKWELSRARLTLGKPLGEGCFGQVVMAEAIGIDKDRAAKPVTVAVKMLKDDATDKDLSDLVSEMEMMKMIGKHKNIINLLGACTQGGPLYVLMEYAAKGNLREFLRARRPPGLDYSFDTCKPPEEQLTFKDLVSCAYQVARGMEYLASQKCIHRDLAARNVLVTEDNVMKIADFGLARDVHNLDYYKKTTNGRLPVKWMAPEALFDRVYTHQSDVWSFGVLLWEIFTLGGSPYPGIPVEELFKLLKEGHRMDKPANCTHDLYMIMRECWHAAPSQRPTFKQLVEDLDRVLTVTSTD

In one assay the target is T1, FGFR3 (Homo sapiens, UniProt P22607).
T1 construct: FGFR3 (residues 450−758); 6×His (N, cleaved yes); made in house; host or cells: E. coli BL21 (DE3), co-expressed with YOPH
Put plainly: ADP-Glo kinase inhibition assay, FGFR3. The assay is classed as biochemical. The settings on record: kinase activity, 10 μM ATP, n = 3.

The next assay has as its target T2, FGFR3(V555M) (Homo sapiens, UniProt P22607, V555M).
T2 construct: FGFR3 (residues 450−758); 6×His (N, cleaved yes); made in house; host or cells: E. coli BL21 (DE3), co-expressed with YOPH
Put plainly: ADP-Glo kinase inhibition assay, FGFR3(V555M) gatekeeper mutant. Type of assay: biochemical. The settings on record: kinase activity, 10 μM ATP, n = 3. On the technique in general: ADP-Glo turns the ADP formed in a reaction into a luminescent signal.

The next assay has as its target T3, SRC (Gallus gallus, UniProt P00523).
T3 construct: chicken SRC (residues 251−533); 6×His (N, cleaved yes); made in house; host or cells: E. coli BL21 (DE3), co-expressed with YOPH
Description: MALDI-TOF MS covalent adduct formation, SRC. The assay is classed as binding, chicken. The settings on record: protein:inhibitor 1:2, overnight, 4 °C. As for the experimental part:
FGFRs, SRC and HCK were prepared as previously described[31]–[33]. Briefly, the kinase domain of human FGFR1 (residues 456−765), FGFR2 (residues 453−770), FGFR3 (residues 450−758), FGFR4 (residues 445−753), chicken SRC (residues 251−533) and human HCK (residues 247−526) were respectively cloned into a modified pET28a expression vector with a N-terminal 6×His tag followed by a PreScission or TEV cleavage site. The mutants, FGFR1(V561M), FGFR2(V564F), FGFR3(V555M), FGFR4(V550L), FGFR4(C477A), SRC(C277A), were introduced by PCR using primers with the desired mutations. The primers were synthesized by Tsingke Biotechnolog Co., Ltd., and the sequences were listed in Supplementary Table 2. Then plasmid was transfected into E. coli BL21 (DE3) cells and co-expressed with YOPH to get the non-phosphorylated proteins. Cells were grown in LB at 37 °C and induced for 16 h with 0.5 mM IPTG at 18 °C. Cells were harvested by centrifugation for next purification. All steps of purification were performed at 4 °C. Proteins were first purified by Ni-NTA affinity chromatography, and then 6×His tag was removed by PreScission or TEV protease. SRC(C277A) was purified as His-tagged fusion proteins. Anion exchange chromatography (Mono Q) and size exclusion chromatography (SEC) were exploited for further purification. […]

For orientation: IC50 means the concentration that inhibits the measured activity by half. Higher therefore signals lower potency. With `C=CC(=O)N1CCN(CCCn2c(=O)c(-c3c(Cl)c(OC)cc(OC)c3Cl)cc3cnc(NC)nc32)CC1` [PRN1371, 8-(3-(4-Acryloylpiperazin-1-yl)propyl)-6-(2,6-dichloro-3,5-dimethoxyphenyl)-2-(methylamino)pyrido[2,3-d]pyrimidin-7(8H)-one], the IC50 at FGFR3 came to 1.8 nM; on FGFR3(V555M) it was 583 nM. Also, the “mass shift of SRC protein (covalent adduct)” value at SRC is “no mass shift was observed”.
